Assay: 64Cu radiolabeling of cetuximab conjugates, specific activity
Details: ~2 chelators per antibody; 0.1 M ammonium acetate pH 6.8, 37 °C, 1 h; radio-iTLC

| Substance | specific activity |
| --- | --- |
| ^64Cu-NE3TA-cetuximab: 64Cu-labeled cetuximab (anti-EGFR monoclonal antibody) modified with ~2 NE3TA per antibody | 9–10 μCi/μg |
| ^64Cu-NOTA-cetuximab: 64Cu-labeled cetuximab conjugate prepared from cetuximab and SCN-Bn-NOTA [reference compound] | 3–4 μCi/μg |

— article PMC4949121 (Inorganic chemistry, 2016)
